ChEMBL document CHEMBL5042489, “Inhibitors of the Hippo Pathway Kinases STK3/MST2 and STK4/MST1 Have Utility for the Treatment of Acute Myeloid Leukemia” (J Med Chem, 2022)

Columns and labels:
[1] = target: T1, Serine/threonine-protein kinase 4 (Homo sapiens, UniProt Q13043)
T1 sequence (Q13043 whole entry): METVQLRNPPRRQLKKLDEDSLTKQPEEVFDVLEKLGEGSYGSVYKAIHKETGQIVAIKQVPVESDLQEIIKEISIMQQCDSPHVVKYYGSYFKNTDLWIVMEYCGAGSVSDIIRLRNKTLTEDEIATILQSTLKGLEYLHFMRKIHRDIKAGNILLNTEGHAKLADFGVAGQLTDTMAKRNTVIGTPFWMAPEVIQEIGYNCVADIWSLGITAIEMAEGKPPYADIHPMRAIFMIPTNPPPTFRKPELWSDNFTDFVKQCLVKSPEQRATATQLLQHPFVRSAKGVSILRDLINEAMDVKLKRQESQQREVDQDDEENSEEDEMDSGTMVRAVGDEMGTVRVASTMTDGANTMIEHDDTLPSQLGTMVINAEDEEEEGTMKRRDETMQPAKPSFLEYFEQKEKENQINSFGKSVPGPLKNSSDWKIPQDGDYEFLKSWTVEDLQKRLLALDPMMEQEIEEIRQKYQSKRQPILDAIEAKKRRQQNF

[2] = target: T1, Serine/threonine-protein kinase 4; remark: listed apart in the source
[3] = target: T1, Serine/threonine-protein kinase 4; remark: listed apart in the source

COc1ccccc1-c1c[nH]c2ncnc(N3CCOCC3)c12
IC50 [1]: 135 nM

c1coc(-c2c[nH]c3ncnc(N4CCOCC4)c23)c1
IC50 [1]: 142 nM

c1nc(N2CCOCC2)c2c(-c3ccoc3)c[nH]c2n1
IC50 [1]: 275 nM

COc1cccc(-c2c[nH]c3ncnc(N4CCOCC4)c23)c1
IC50 [1]: 836 nM

OCCCNc1ncnc2[nH]cc(-c3cccc(Cl)c3)c12
IC50 [1]: 94 nM
IC50 [2]: 552 nM

Fc1ccc(-c2c[nH]c3ncnc(N4CCOCC4)c23)cc1
IC50 [1]: 836 nM

CN(C)c1ncnc2[nH]cc(-c3cccc(Cl)c3)c12
IC50 [1]: 81 nM

CCN(CCO)c1ncnc2[nH]cc(-c3cccc(Cl)c3)c12
IC50 [1]: 171 nM

NC(=O)c1cccc(-c2c[nH]c3ncnc(N4CCOCC4)c23)c1
Ki [3]: 96 nM
IC50 [1]: 50 nM
IC50 [2]: 259 nM

Clc1cccc(-c2c[nH]c3ncnc(N4CCCCC4)c23)c1
IC50 [1]: 48 nM
IC50 [2]: 549 nM

CC1(N)CCN(c2ncnc3[nH]cc(-c4cccc(Cl)c4)c23)CC1
IC50 [1]: 163 nM

c1csc(-c2c[nH]c3ncnc(N4CCOCC4)c23)c1
IC50 [1]: 91 nM

Clc1cccc(-c2c[nH]c3ncnc(NCC4CC4)c23)c1
IC50 [1]: 140 nM

Cc1ccc(-c2c[nH]c3ncnc(N4CCOCC4)c23)cc1
IC50 [1]: 846 nM

CC1(O)CCN(c2ncnc3[nH]cc(-c4cccc(Cl)c4)c23)CC1
IC50 [1]: 145 nM

Fc1cccc(-c2c[nH]c3ncnc(N4CCOCC4)c23)c1
IC50 [1]: 59 nM
IC50 [2]: 527 nM

Fc1ccccc1-c1c[nH]c2ncnc(N3CCOCC3)c12
IC50 [1]: 223 nM

Cc1cccc(-c2c[nH]c3ncnc(N4CCOCC4)c23)c1
IC50 [1]: 35 nM
IC50 [2]: 271 nM
